Measurements published in ChEMBL document CHEMBL1123670, “Inhibitors of cyclic AMP phosphodiesterase. 2. Structural variations of N-cyclohexyl-N-methyl-4-[(1,2,3,5-tetrahydro- 2-oxoimidazo[2,1-b]quinazolin-7-yl)-oxy]butyramide (RS-82856)” (J Med Chem, 1987).

By UniProt entry, the sequences of proteins in these tests, tags left out. Where a name states a change or a piece, a line headed by the entry shows the natural chain unless it says otherwise.
UniProt P27815: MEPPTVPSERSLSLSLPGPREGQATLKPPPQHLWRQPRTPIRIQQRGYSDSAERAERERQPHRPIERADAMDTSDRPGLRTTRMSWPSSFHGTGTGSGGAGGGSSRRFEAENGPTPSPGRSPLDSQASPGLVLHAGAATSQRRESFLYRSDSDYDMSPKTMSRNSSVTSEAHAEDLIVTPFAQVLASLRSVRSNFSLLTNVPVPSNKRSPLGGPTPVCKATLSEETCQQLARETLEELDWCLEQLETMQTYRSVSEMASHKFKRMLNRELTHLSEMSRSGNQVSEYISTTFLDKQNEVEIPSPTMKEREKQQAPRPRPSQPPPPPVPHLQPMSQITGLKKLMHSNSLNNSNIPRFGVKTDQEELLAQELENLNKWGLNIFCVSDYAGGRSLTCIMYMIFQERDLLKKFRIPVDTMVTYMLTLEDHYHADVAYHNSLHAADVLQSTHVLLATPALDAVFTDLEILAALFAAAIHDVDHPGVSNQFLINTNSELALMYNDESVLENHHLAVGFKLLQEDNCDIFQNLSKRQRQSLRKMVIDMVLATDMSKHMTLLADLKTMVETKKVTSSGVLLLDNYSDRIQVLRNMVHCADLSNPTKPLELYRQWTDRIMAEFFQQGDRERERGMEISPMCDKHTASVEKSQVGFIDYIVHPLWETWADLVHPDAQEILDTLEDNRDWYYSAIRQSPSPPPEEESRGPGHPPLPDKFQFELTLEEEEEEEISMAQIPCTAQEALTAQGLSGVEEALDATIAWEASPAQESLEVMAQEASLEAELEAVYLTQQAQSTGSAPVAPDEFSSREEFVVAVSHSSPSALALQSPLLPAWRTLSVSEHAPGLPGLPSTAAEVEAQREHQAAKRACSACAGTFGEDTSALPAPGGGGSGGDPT
UniProt Q14432: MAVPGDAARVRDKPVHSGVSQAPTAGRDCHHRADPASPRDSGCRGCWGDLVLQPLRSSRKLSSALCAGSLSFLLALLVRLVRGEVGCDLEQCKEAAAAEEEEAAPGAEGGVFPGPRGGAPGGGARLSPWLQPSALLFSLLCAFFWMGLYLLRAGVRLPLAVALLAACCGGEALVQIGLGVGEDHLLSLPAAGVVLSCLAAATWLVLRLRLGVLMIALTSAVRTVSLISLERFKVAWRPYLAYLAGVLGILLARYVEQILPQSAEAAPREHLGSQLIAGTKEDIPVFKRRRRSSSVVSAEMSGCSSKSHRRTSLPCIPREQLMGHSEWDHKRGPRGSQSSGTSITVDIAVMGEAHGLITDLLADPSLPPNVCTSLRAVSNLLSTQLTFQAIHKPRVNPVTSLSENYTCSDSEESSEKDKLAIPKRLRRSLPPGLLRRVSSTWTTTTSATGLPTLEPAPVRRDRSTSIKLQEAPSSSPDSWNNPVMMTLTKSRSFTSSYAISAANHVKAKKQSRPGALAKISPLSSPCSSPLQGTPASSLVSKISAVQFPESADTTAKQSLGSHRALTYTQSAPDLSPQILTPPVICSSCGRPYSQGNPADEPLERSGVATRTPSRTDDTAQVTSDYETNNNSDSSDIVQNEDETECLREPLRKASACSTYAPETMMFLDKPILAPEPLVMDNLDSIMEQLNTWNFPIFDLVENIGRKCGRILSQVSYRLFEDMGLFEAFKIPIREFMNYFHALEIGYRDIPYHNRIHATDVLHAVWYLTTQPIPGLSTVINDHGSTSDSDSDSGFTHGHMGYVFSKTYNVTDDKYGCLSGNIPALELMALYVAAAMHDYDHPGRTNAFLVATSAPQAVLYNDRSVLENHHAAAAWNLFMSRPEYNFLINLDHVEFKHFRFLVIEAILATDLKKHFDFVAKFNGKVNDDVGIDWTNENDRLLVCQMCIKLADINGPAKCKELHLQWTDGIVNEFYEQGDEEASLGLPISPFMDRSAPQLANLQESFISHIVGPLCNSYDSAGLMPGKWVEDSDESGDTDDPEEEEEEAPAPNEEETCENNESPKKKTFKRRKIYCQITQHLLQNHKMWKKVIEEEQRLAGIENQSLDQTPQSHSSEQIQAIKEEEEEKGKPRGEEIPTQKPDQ
UniProt Q08499: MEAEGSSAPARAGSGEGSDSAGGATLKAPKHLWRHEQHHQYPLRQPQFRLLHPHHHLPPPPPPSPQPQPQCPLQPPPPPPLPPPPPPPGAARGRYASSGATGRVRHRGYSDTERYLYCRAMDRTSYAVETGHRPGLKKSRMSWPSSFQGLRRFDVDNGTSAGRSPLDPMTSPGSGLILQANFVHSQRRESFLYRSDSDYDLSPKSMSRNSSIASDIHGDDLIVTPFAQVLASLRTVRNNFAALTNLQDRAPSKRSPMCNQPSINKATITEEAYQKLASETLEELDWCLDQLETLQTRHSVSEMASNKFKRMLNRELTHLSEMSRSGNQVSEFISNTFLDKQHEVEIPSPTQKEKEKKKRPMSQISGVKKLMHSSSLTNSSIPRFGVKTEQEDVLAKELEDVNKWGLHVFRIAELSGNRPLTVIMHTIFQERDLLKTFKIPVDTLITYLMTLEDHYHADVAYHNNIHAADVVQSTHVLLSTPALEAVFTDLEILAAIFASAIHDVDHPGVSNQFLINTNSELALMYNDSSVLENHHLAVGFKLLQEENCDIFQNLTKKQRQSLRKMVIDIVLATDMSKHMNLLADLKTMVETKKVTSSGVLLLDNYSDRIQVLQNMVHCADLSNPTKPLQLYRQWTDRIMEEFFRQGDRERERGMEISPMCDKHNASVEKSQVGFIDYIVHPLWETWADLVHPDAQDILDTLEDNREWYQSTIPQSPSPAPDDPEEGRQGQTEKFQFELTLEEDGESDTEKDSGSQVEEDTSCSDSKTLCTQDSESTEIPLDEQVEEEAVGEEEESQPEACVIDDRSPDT
UniProt Q07343: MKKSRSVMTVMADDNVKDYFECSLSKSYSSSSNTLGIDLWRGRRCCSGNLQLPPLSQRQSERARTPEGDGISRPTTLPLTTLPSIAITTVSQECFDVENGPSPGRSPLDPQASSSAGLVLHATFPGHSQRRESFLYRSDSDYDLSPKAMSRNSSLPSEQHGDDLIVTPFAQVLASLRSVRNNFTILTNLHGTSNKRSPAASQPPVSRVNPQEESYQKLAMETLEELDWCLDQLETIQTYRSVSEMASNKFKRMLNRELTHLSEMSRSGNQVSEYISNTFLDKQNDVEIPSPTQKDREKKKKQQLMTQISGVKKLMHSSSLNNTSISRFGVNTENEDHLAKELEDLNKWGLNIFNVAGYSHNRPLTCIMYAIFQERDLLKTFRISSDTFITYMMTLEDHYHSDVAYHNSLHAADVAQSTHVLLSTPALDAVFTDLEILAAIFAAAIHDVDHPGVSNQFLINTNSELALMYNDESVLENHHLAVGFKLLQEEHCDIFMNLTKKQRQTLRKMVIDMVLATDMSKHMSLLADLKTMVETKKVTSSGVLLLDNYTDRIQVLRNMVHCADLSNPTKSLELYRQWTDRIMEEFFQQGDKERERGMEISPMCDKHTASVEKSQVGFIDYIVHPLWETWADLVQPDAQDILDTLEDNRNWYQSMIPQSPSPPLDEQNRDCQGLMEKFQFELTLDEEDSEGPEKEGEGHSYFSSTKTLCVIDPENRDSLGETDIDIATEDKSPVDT
UniProt Q13370: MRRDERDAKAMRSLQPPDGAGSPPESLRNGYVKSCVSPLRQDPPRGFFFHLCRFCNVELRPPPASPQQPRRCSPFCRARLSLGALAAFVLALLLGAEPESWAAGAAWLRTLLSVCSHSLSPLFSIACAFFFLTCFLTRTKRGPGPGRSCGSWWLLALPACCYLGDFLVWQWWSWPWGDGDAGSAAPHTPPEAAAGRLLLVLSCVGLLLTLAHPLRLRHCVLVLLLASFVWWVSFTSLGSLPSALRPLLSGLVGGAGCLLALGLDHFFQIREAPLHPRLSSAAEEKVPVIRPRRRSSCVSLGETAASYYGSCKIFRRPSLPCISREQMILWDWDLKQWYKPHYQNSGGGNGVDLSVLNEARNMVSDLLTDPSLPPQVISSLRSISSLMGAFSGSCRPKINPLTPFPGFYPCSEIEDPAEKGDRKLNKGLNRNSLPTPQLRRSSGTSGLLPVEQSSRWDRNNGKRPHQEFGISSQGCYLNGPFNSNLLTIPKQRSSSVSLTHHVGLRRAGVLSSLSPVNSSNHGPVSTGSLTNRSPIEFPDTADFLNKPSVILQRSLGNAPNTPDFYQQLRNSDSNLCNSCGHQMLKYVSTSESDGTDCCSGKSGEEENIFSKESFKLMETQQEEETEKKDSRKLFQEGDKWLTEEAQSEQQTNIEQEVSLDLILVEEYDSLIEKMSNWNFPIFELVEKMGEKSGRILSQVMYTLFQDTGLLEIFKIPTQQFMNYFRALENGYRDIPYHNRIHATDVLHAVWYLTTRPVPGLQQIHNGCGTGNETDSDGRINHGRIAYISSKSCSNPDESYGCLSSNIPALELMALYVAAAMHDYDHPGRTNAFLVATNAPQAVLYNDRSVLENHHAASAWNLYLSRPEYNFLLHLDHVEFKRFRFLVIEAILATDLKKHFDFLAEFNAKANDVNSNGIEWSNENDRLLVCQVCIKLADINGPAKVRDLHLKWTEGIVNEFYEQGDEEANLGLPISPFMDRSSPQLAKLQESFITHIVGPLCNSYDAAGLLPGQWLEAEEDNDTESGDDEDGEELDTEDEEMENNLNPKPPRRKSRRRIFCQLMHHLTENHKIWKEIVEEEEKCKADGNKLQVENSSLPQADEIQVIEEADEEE
UniProt Q08493: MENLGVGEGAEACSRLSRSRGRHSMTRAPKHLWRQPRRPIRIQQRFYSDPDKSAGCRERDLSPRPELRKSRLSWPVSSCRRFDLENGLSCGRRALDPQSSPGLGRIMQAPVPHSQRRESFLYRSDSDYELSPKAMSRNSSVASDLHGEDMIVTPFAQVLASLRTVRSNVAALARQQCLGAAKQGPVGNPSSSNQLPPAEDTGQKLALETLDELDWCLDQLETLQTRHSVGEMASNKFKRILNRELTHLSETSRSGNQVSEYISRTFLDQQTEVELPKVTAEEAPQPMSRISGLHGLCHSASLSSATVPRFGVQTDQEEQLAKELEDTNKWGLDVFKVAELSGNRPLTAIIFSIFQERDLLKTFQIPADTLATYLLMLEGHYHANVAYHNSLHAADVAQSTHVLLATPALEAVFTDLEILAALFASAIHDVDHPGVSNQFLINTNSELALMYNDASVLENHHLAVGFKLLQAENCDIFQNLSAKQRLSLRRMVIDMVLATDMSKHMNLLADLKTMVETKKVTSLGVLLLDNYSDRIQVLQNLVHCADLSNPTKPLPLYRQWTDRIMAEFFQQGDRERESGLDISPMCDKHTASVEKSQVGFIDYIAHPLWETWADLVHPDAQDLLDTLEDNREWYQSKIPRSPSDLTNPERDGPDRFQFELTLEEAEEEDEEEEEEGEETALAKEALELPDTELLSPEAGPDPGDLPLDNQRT

Tests used:
[1] = target: Phosphodiesterase; PDE3 & PDE4 (Homo sapiens) (UniProt P27815+Q14432+Q08499+Q07343+Q13370+Q08493); assay: Selectivity index is the ratio of IC25 of dog heart PDE to IC50 of human platelet PDE; conditions: Canis lupus familiaris
[2] = Selectivity index is the ratio of IC25 of rat heart PDE to IC50 of human platelet PDE

SMILES	Ratio [1]	Ratio [2]
O=C1CN2Cc3cc(OCCCC(=O)N(Cc4ccccc4)Cc4ccccc4)ccc3N=C2N1		6.5
O=C1CN2Cc3cc(OCCCC(=O)N4CCCC4)ccc3N=C2N1		5
CN(C(=O)CCCOc1cccc2c1CN1CC(=O)NC1=N2)C1CCCCC1	0.75	
O=C1CN2Cc3cc(OCCCC(=O)NC4CCCCC4)ccc3N=C2N1	2.5	
CN(C(=O)CCCOc1ccc2nc3n(c(=O)c2c1)CCN3)C1CCCCC1		0.15
CN(C(=O)NCCOc1ccc2c(c1)CN1CC(=O)NC1=N2)C1CCCCC1	46	
O=C1CN2Cc3cc(OCCCC(=O)N4CCCCC4)ccc3N=C2N1		5.8
CN(C(=O)CCCOc1ccc2c(c1)CN1CC(=O)NC1=N2)C(c1ccccc1)c1ccccc1		4
CN(Cc1ccccc1)C(=O)CCCOc1ccc2c(c1)CN1CC(=O)NC1=N2		9.2
O=C1CN2Cc3cc(OCCCc4nnnn4C4CCCCC4)ccc3N=C2N1	4	
CN(C(=O)CCCOc1cccc2c1NC1=NC(=O)CN1C2)C1CCCCC1	< 0.016	
CN(C(=O)CCCOc1ccc2c(c1Cl)CN1CC(=O)NC1=N2)C1CCCCC1	7.1	
CN(C(=O)CCCOc1ccc2nc3n(c(=O)c2c1)CC(=O)N3)C1CCCCC1		0.53
CN(C(=O)CCC[S+]([O-])c1ccc2c(c1)CN1CC(=O)NC1=N2)C1CCCCC1 (stereo unspecified)	3.6	
CNC(=O)CCCOc1ccc2c(c1)CN1CC(=O)NC1=N2	0.8	
O=C1CN2Cc3cc(OCCCC(=O)N(CCn4ccnc4)C4CCCCC4)ccc3N=C2N1	1.25	

SMILES	Ratio [1]	Ratio [2]
CCOC(=O)CCCOc1ccc2c(c1)CN1CC(=O)NC1=N2	1.8	
O=C1CN2Cc3cc(OCCCC(=O)OC4CCCCC4)ccc3N=C2N1	2.4	
O=C1CN2Cc3cc(OCCCC(=O)N(CCCCCCO)C4CCCCC4)ccc3N=C2N1	0.56	
CN(C(=O)OCCOc1ccc2c(c1)CN1CC(=O)NC1=N2)C1CCCCC1	4.5	
O=C1CN2Cc3cc(OCCCC(=O)N4CCCC5CCCCC54)ccc3N=C2N1 (stereo unspecified)		15
O=C1CN2Cc3cc(OCCCC(=O)N4CCCc5ccccc54)ccc3N=C2N1		16
NC(=O)CCCOc1ccc2c(c1)CN1CC(=O)NC1=N2	0.55	
O=C1CN2Cc3cc(OCCCC(=O)N(CCN4CCOCC4)C4CCCCC4)ccc3N=C2N1	7.8	
O=C1CN2Cc3cc(OCCCC(=O)N(C4CCCCC4)C4CCCCC4)ccc3N=C2N1		11
O=C1CN2Cc3cc(OCCCC(=O)N4CCOCC4)ccc3N=C2N1		4.4
CN(C(=O)CCCOc1ccc2c(c1)CN1CC(=O)NC1=N2)c1ccccc1		13.5
O=C(O)CCCOc1ccc2c(c1)CN1CC(=O)NC1=N2	0.46	
CN(C(=O)CCCS(=O)(=O)c1ccc2c(c1)CN1CC(=O)NC1=N2)C1CCCCC1	2.1	
CN(C)C(=O)CCCOc1ccc2c(c1)CN1CC(=O)NC1=N2	0.3	
CN(C(=O)CCCCc1ccc2c(c1)CN1CC(=O)NC1=N2)C1CCCCC1	1.1	

Results, then the molecule that gave them:

Ratio [1]	Ratio [2]	SMILES
0.77		CN(C(=O)CCCOc1ccc2c(c1)CN1CCC(=O)NC1=N2)C1CCCCC1
9.1		NC(=O)CN(C(=O)CCCOc1ccc2c(c1)CN1CC(=O)NC1=N2)C1CCCCC1
0.5		CN(C(=O)CCCOc1ccc2c(c1)CN1CC(=O)NC1=N2)C1CCCC1
5.1		CN(C(=O)CCCOc1ccc2c(c1)CN1C(=N2)NC(=O)C1(C)C)C1CCCCC1
	1.75	CN(C(=O)CCCCCOc1ccc2c(c1)CN1CC(=O)NC1=N2)C1CCCCC1
	5.4	CN(C(=O)COc1ccc2c(c1)CN1CC(=O)NC1=N2)C1CCCCC1
3.5		CCN(C(=O)CCCOc1ccc2c(c1)CN1CC(=O)NC1=N2)C1CCCCC1
1.1		O=C1CN2Cc3cc(OCCCC(=O)N(CCCCO)C4CCCCC4)ccc3N=C2N1
0.4		CN(C(=O)CCCOc1ccc2c(c1)CN1C(=O)C(=O)NC1=N2)C1CCCCC1
	4.8	CN(C(=O)CCCCOc1ccc2c(c1)CN1CC(=O)NC1=N2)C1CCCCC1
2.2		O=C1CN2Cc3cc(OCCCC(=O)N(C(CO)CO)C4CCCCC4)ccc3N=C2N1
2.3		CC(O)[C@@H]1C(=O)NC2=Nc3ccc(OCCCC(=O)N(C)C4CCCCC4)cc3CN21 (stereo partly specified)
	2.8	CN(C(=O)CCCCCCOc1ccc2c(c1)CN1CC(=O)NC1=N2)C1CCCCC1
2.8		O=C1CN2Cc3cc(OCCCC(=O)N(CCCO)C4CCCCC4)ccc3N=C2N1
5		C[C@@H]1C(=O)NC2=Nc3ccc(OCCCC(=O)N(C)C4CCCCC4)cc3CN21
1.1		CN(C(=O)CCCOc1ccc2c(c1)CN1C(=N2)NC(=O)[C@@H]1c1ccccc1)C1CCCCC1
1		CN(C(=O)CCCOc1ccc2c(c1)CN1C(=N2)NC(=O)[C@H]1c1ccccc1)C1CCCCC1
0.7		CN(C(=O)CCCOc1ccc2c(c1)CN1CC(=O)NC1=N2)C1CCCCCCC1
3.27		CN(C(=O)CCCOc1ccc2c(c1)CN1C(=N2)NC(=O)[C@@H]1CO)C1CCCCC1
16.7		C=c1c(=O)[nH]c2n1Cc1cc(OCCCC(=O)N(C)C3CCCCC3)ccc1N=2
0.3		COC1=NC2=Nc3ccc(OCCCC(=O)N(C)C4CCCCC4)cc3CN2C1
0.6		CC(C)[C@@H]1C(=O)NC2=Nc3ccc(OCCCC(=O)N(C)C4CCCCC4)cc3CN21
5		COC(=O)CN(C(=O)CCCOc1ccc2c(c1)CN1CC(=O)NC1=N2)C1CCCCC1

Ratio [1]	Ratio [2]	SMILES
7.7		COCCN(C(=O)CCCOc1ccc2c(c1)CN1CC(=O)NC1=N2)C1CCCCC1
< 0.64		CC(C)[C@H]1C(=O)NC2=Nc3ccc(OCCCC(=O)N(C)C4CCCCC4)cc3CN21
4.7		CC(C)N(C(=O)CCCOc1ccc2c(c1)CN1CC(=O)NC1=N2)C1CCCCC1
0.5		CN1C(=O)CN2Cc3cc(OCCCC(=O)N(C)C4CCCCC4)ccc3N=C21
4.2		CN(C(=O)CCCOc1ccc2c(c1)CN1CC(=O)NC1=N2)C1CCCCCC1
0.8		CN(C(=O)CCCOc1ccc2c(c1)CN1CCNC1=N2)C1CCCCC1
0.4		CN(C(=O)CCCOc1ccc2c(c1)CN1CC(=O)NC1=N2)C1CCCCC1 [LIXAZINONE]
3		C[C@H]1C(=O)NC2=Nc3ccc(OCCCC(=O)N(C)C4CCCCC4)cc3CN21
0.47		O=C1CN2Cc3cc(OCCCC(=O)N(CCCCCO)C4CCCCC4)ccc3N=C2N1
0.36		CN(C(=O)CCCOc1ccc2c(c1)CN1NC(=O)NC1=N2)C1CCCCC1
2.4		CC1c2cc(OCCCC(=O)N(C)C3CCCCC3)ccc2NC2=NC(=O)CN21 (stereo unspecified)
3.9		CN(C(=O)CCCOc1ccc2c(c1)CN1C(=N2)NC(=O)[C@H]1CO)C1CCCCC1
2.4		CN(C(=O)CCCOc1ccc2c(c1)CN1CC(=O)NC1=N2)C1CCC(O)CC1 (stereo unspecified)
0.11		CN(C(=O)CCCOc1ccc2c(c1)CN1C(=O)CNC1=N2)C1CCCCC1
1.7		CC(O)[C@H]1C(=O)NC2=Nc3ccc(OCCCC(=O)N(C)C4CCCCC4)cc3CN21 (stereo partly specified)
0.43		CN(C(=O)CCCOc1ccc2c(c1)NC1=NC(=O)CN1C2)C1CCCCC1
1.68		CC[C@@H]1C(=O)NC2=Nc3ccc(OCCCC(=O)N(C)C4CCCCC4)cc3CN21
4.9		CN(C(=O)CCCOc1ccc2c(c1)CN1C(=N2)NC(=O)C12CC2)C1CCCCC1
1.86		CN(C(=O)CCCSc1ccc2c(c1)CN1CC(=O)NC1=N2)C1CCCCC1
	20	O=C(O)CN(C(=O)CCCOc1ccc2c(c1)CN1CC(=O)NC1=N2)C1CCCCC1
0.78		CC[C@H]1C(=O)NC2=Nc3ccc(OCCCC(=O)N(C)C4CCCCC4)cc3CN21
	5.6	O=C1CN2Cc3cc(OCCCC(=O)N(CCO)C4CCCCC4)ccc3N=C2N1
